Assay results taken from patent publication US20200055883A1.
Read-outs that look alike come from different tables or passages of the source.

Sequences of proteins named here, by UniProt entry; tags and fusion partners are left off.
UniProt Q86WV6, whole entry R71H/G230A/H232R/R293Q: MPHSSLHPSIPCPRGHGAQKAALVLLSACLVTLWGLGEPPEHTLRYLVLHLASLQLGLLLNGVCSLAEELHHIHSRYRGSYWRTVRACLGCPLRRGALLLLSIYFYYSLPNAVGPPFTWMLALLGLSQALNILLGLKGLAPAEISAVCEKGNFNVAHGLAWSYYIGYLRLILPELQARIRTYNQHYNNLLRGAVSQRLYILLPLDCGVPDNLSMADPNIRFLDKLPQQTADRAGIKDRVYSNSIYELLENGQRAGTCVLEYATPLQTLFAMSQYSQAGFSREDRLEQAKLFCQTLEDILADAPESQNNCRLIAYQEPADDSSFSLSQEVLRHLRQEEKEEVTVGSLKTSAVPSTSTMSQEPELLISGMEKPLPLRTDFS

Target: Human STING HAQ (Homo sapiens, UniProt Q86WV6, G230A/H232R/R293Q/R71H)
Assay: HAQ STING agonist activity reporter assay (THP1-Dual cells)
[1] = read-out: Human STING EC50 (μM) HAQ, Table 4, ammonium salt form of each compound, 20 hrs, tested form: NH4 salt
[2] = read-out: Human STING EC50 (μM) HAQ, Table 4, ammonium salt form of each compound, 20 hrs

Row | SMILES | EC50 [1] | further results
1 | O=[P@]1(S)OC[C@H]2O[C@@H]3[C@H](O)[C@@H]2O[P@](=O)(S)OC[C@H]2O[C@H]([C@H](O1)[C@@H]2O)n1cnc2c(ncnc21)NCC/C=C/CNc1ncnc2c1ncn23 | > 100 µM | 
2 | O=[P@@]1(S)OC[C@H]2O[C@@H]3[C@H](O)[C@@H]2O[P@](=O)(S)OC[C@H]2O[C@H]([C@H](O1)[C@@H]2O)n1cnc2c(ncnc21)NC/C=C/CCNc1ncnc2c1ncn23 | > 100 µM | 
3 | O=[P@]1(S)OC[C@H]2O[C@@H]3[C@H](O)[C@@H]2O[P@@](=O)(S)OC[C@H]2O[C@H]([C@H](O1)[C@@H]2O)n1cnc2c(ncnc21)NC/C=C/CNc1ncnc2c1ncn23 | > 100 µM | 
4 | O=[P@]1(S)OC[C@H]2O[C@@H]3[C@H](O)[C@@H]2O[P@](=O)(S)OC[C@H]2O[C@H]([C@H](O1)[C@@H]2O)n1cnc2c(ncnc21)NC/C=C\CNc1ncnc2c1ncn23 | > 100 µM | 
5 | O=P1(S)OC[C@H]2O[C@@H]3[C@H](F)[C@@H]2OP(=O)(S)OC[C@H]2O[C@H]([C@H](F)[C@@H]2O1)n1cnc2c(ncnc21)NCCC=CCNc1ncnc2c1ncn23 (stereo partly shown) |  | EC50 (read-out: Human STING EC50 (μM) HAQ, Table 5, ammonium salt form of each compound, 20 hrs): > 100 µM
6 | O=[P@]1(S)OC[C@H]2O[C@@H]3[C@H](O)[C@@H]2O[P@](=O)(S)OC[C@H]2O[C@H]([C@H](O1)[C@@H]2O)n1cnc2c(ncnc21)NCC=CCCNc1ncnc2c1ncn23 |  | EC50 [2]: > 100 µM
7 | O=[P@@]1(S)OC[C@H]2O[C@@H]3[C@H](F)[C@@H]2O[P@](=O)(S)OC[C@H]2O[C@H]([C@H](O1)[C@@H]2O)n1cnc2c(ncnc21)NC/C=C\CNc1ncnc2c1ncn23 | > 100 µM | 
8 | O=[P@]1(S)OC[C@H]2O[C@@H]3[C@H](O)[C@@H]2O[P@@](=O)(S)OC[C@H]2O[C@H]([C@H](O1)[C@@H]2O)n1cnc2c(ncnc21)NC/C=C\CNc1ncnc2c1ncn23 | > 100 µM | 
9 | O=[P@]1(S)OC[C@H]2O[C@@H]3[C@H](F)[C@@H]2O[P@@](=O)(S)OC[C@H]2O[C@H]([C@H](F)[C@@H]2O1)n1cnc2c(ncnc21)CC/C=C/CCc1ncnc2c1ncn23 |  | EC50 (read-out: hSTING EC50 (μM) HAQ, Table 6, ammonium salt form, except Compounds 26, 33, 34 tested as bis-TEA salts, tested form: NH4 salt): > 100 µM
10 | O=P1(S)OC[C@H]2O[C@@H]3[C@H](O)[C@@H]2OP(=O)(S)OC[C@H]2O[C@H]([C@H](O1)[C@@H]2O)n1cnc2c(ncnc21)NCC=CCCNc1ncnc2c1ncn23 (single isomer, unassigned) |  | EC50 [2]: > 100 µM
